Values of other authors as cited in US20160331796A1, “ENRICHED AMARANTHUS BLITOIDES COMPOSITIONS AND USES THEREOF” (priority 2010, published 2016).

Which “daily ingestion producing acute toxicity” value (adults, acute toxicity within two weeks) does the source give for Vitamin D here?
The value was 375 µg/kg.

And the “daily ingestion at which toxicity has been observed” value (adults, long term daily ingestion)?
The value was 25 µg/kg.

And the “dosage at which toxicity has been seen” value (healthy adults)?
Its value is “above 1250 μg/day”.
